Ab-91 heavy chain CDR variants: yeast mating affinities

Data: MIT Lincoln Laboratory AlphaSeq set, Engelhart et al. 2022, doi:10.1038/s41597-022-01779-4, as distributed in FLAb.

Antigen: PDVDLGDISGINAS, a 14-residue peptide of the SARS-CoV-2 spike HR2 region.

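The parent was found by panning a naive human phage display library on the peptide. In library AAYL51, one, two or three CDR residues were substituted; doubles and triples were drawn at random. In AlphaSeq, yeast of one mating type display the scFv and yeast of the other type display the target. After mating in shaken culture at 30 °C for 16 h, diploids were selected and their barcode pairs sequenced. Each replicate has its own calibration line, from reference interactions of the BCL2 family. Mating was done three times.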

The variants keep the light chain, the linker and the frameworks of Ab-91 (scFv order VL, three GGGGS repeats, VH).
VL: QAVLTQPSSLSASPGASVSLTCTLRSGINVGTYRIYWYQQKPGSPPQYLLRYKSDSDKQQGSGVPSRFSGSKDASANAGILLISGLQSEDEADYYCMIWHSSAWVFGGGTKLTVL
VH: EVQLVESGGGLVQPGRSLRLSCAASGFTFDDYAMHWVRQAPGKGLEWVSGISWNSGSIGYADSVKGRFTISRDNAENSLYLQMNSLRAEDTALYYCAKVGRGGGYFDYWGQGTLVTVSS

Substitutions are numbered in sequence along the VH above, starting at 1 (not Kabat). Each Kd is an estimate from the mating assay, the geometric mean of the replicates in which the pair was seen; lower is stronger. Where no diploid with the target was found in any replicate, the entry reads "no signal": below detection, most likely a poor binder, though not proof of it. Nonspecific signal, from three strains lacking the peptide, appeared in 21% of pairings of library AAYL51, centred on 34 µM (5% of these signals below 1.8 µM); values are not corrected for it.

Kd (apparent)	replicates with signal	changes
15 µM	1/3	F29R+A33L+G100N
150 µM	1/3	H35K+V64D+Y105L
no signal	0/3	I58L+D107Y
850 µM	1/3	W53S+V99N+G104V
no signal	0/3	W53H+N54G+D107S
2.6 µM	1/3	I51K+Y60W+K65L
no signal	0/3	A33V+W53S+F106M
1.4 µM	3/3	S57T+R101S+Y108V
no signal	0/3	M34C+H35V+D62A
400 nM	3/3	D62R+K65G+Y105E
340 µM	2/3	D31I+K65G+V99S
3.0 µM	1/3	A33I+V99P+G103Q
54 µM	2/3	H35Q+I51C+S52R
45 nM	3/3	F29V+R101A+Y108I
7.0 µM	2/3	I58R+G100C
13 µM	1/3	G26C+G100Q
24 µM	1/3	T28G+D62K+V64D
110 µM	1/3	F29G+A61H+S63Q
no signal	0/3	A61I+G100I+G103V
9.3 µM	1/3	S55N+S57D+D107C
230 µM	2/3	N54K+S63H+K65G
27 µM	2/3	A33C+S57E+I58F
no signal	0/3	G59L+G104H+D107K
no signal	0/3	V64Q+G103S+Y108V
no signal	0/3	T28P+H35M+I58L
81 nM	3/3	W53L+S57F+R101Y
no signal	0/3	Y32W+N54E+G100I
26 µM	2/3	F27D+F29E
no signal	0/3	I51S+G59Q+V99P
44 µM	1/3	M34C+D62S+G104M
no signal	0/3	S52R+I58Y
49 nM	3/3	F29I+D107S
9.4 nM	3/3	D31R+Y60E
no signal	0/3	G50T+K65W
2.1 µM	1/3	D30C+G50S+K65C
no signal	0/3	S57C+I58N+Y108W
no signal	0/3	G26Q+V64L+K65D
7.8 µM	3/3	Y32H+D107G
no signal	0/3	W53R+G59Y+G103L
24 µM	1/3	F27S+K65F+D107T
no signal	0/3	Y32D+V64A+K65L
16 µM	2/3	S55Q+A61D+K65Y
15 µM	2/3	F27D+D31L+V99M
no signal	0/3	F27M+I58H+V99N
no signal	0/3	M34Y+D62K+Y105Q
13 µM	1/3	D31G+W53E+I58E
no signal	0/3	G59A+Y60L+A61Q
26 µM	1/3	G50Y+S57C+G100E
95 µM	3/3	F27E+M34K+G50N
no signal	0/3	A33I+K65S+G100M
3.3 nM	3/3	S52A+S57Q
72 nM	3/3	A61E+R101W
22 µM	1/3	D31E+M34P+V64H
21 µM	2/3	D31E+K65Y+G100T
no signal	0/3	D30W+A33H+R101F
26 µM	2/3	G26D+F29R+A33Y
no signal	0/3	A33N+H35K+R101D
11 µM	1/3	A33N+G59H
120 nM	3/3	D31K+Y32I+I58D
320 µM	2/3	S57E+G59E+A61W
400 µM	3/3	G59T+V99H+R101C
no signal	0/3	D31K+Y60M+G104M

10 of these entries, quoted again:

{"changes": "D30C+G50S+K65C", "Kd (apparent)": "2.1 µM", "replicates with signal": "1/3"}
{"changes": "F29G+A61H+S63Q", "Kd (apparent)": "110 µM", "replicates with signal": "1/3"}
{"changes": "D30W+A33H+R101F", "Kd (apparent)": "no signal", "replicates with signal": "0/3"}
{"changes": "F27D+F29E", "Kd (apparent)": "26 µM", "replicates with signal": "2/3"}
{"changes": "F27S+K65F+D107T", "Kd (apparent)": "24 µM", "replicates with signal": "1/3"}
{"changes": "D31I+K65G+V99S", "Kd (apparent)": "340 µM", "replicates with signal": "2/3"}
{"changes": "D62R+K65G+Y105E", "Kd (apparent)": "400 nM", "replicates with signal": "3/3"}
{"changes": "I58L+D107Y", "Kd (apparent)": "no signal", "replicates with signal": "0/3"}
{"changes": "N54K+S63H+K65G", "Kd (apparent)": "230 µM", "replicates with signal": "2/3"}
{"changes": "D31E+M34P+V64H", "Kd (apparent)": "22 µM", "replicates with signal": "1/3"}